In this experiment the target is Sodium-dependent serotonin transporter (Rattus norvegicus, UniProt P31652). Description: Tested for the binding affinity towards Serotonin transporter in rat midbrain tissue by displacing [3H]paroxetine radioligand. It counts as tissue-based. An outline of the steps:
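Competition binding with 0.2 nM [³H]paroxetine as final radioligand concentration.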

Protein sequences, listed by entry. Tags and fused reporters are not part of them.
UniProt P31652, whole entry: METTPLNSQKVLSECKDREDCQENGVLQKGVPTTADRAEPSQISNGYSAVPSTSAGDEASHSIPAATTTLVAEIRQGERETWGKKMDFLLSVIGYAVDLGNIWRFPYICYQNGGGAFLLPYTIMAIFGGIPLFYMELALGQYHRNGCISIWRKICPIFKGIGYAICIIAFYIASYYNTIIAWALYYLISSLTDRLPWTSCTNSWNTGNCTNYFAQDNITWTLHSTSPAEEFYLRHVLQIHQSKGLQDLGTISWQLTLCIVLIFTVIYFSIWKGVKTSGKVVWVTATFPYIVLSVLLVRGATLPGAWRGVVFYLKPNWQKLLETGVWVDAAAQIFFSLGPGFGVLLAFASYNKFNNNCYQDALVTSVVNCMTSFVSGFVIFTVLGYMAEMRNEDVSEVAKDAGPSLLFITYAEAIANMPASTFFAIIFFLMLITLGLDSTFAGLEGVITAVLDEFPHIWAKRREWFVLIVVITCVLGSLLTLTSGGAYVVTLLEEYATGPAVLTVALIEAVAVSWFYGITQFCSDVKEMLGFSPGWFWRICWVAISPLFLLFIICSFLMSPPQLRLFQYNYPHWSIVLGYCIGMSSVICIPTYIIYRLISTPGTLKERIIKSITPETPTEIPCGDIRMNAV

Broadly, the Ki is a measure of affinity in units of concentration, obtained from inhibition or displacement. As to `COC(=O)[C@@H]1C2CC[C@H](C[C@@H]1c1ccccc1)N2C`, the Ki came out at 0.178 µM.

The record behind these values is ChEMBL document CHEMBL1135770, “Synthesis and transporter binding properties of 3beta-[4'-(phenylalkyl, -phenylalkenyl, and -phenylalkynyl)phenyl]tropane-2beta-carboxylic acid methyl esters: evidence of a remote phenyl binding domain on the dopamine transporter” (J Med Chem, 2002).
